Target: human FLAP (Homo sapiens (Human), UniProt P20292)
Assay: FLAP binding assay (HTRF format)
Conditions: read-out: FLAP Binding wild type HTRF Ki
Protocol: The ability of the compounds of the present invention to treat a FLAP-mediated disease and/or disorder, or associated symptoms or complications thereof, was determined using the following procedures. Binding assay data represent the average value obtained from two different assay plates, with samples run in duplicate on each plate. Human whole blood assay data represent a single replicate on an assay plate using whole blood from at least one healthy donor.
Data are expressed as a HTRF ratio.

Protein sequences, listed by entry. Tags and fused reporters are not part of them. Lines headed by an entry give the natural chain unless they say otherwise; changes in a name come on top.
UniProt P20292: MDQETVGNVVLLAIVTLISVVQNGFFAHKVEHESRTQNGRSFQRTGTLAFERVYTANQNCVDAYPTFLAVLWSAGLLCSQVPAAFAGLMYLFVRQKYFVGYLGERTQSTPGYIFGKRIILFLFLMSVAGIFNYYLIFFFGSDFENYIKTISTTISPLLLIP

Substance | Ki
4-{[4′-(5-Aminopyrazin-2-yl)-3′- fluorobiphenyl-2- yl]carbonyl}piperazin-2-one [Example 519] | > 10 µM
Ethyl 2-[2′-(tert-butylsulfamoyl)-3- fluorobiphenyl-4-yl]imidazo[1,2- a]pyridine-5-carboxylate [Example 587] | > 10 µM

— US9745328B2, “Flap modulators” (JANSSEN PHARMACEUTICA NV, priority 2013, dated 2017)
